# Source: PubChem
# The list is not random: actives were taken first. Their share in the collection is about 0.73%.
# RAD54 branch: RAD54 (human) branch migration inhibition; RAD54 Holliday junction branch migration, FAM/BHQ fluorescence; 0.14% of 360,000 active; inhibition, % at 10.4 µM;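 active = mean normalized replicate activity at least 40 and at least half of replicates scoring 40 or more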;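 also: 0% = median of neutral control wells and 100% = median of positive control wells; inhibitors cause a drop in the FAM fluorescence signal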
# RAD52 inh: RAD52 (human) annealing inhibition; P43351; recombinant RAD52 DNA annealing, FRET fluorescence; inhibition, % at 18.7 µM; 0.46% of 360,000 active;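 active = every replicate showing at least 50% inhibition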
# E-sel inducer: induces E-selectin expression in human endothelial cells | HUVEC E-selectin immunofluorescence imaging; normalized: neutral wells 0, TNF-alpha wells 100 | AID 686992 | 0.37% of 260,000 active | activation, % at 7.58 µM | P16581;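 active = mean E-selectin-positive cell signal at least 10% of the positive control, reached in at least 60% of replicates, without over 20% cell loss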
#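 assay system = HUVEC, human umbilical vein endothelial cells | input = 3,000 HUVEC seeded per well | medium = EGM-2 growth medium on 0.1% gelatin-coated wells | dosing = one compound dose added by pin transfer | signal = immunofluorescence imaging | read-out basis = % PE-positive cells | control set = TNF-alpha, DMSO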
# UUG fidelity: alters start codon recognition fidelity in yeast; AID 602363; activity score, % at 18.7 µM; 350,000 tested, 0.13% active; S. cerevisiae UUG-firefly luciferase reporter, luminescence/redox ratio;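 active means replicate mean at a twofold rise or more, about +100% in these data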;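 further: firefly luciferase made from a UUG start codon reports start codon fidelity; reporter light over untreated wells divided by growth signal over untreated wells; some hits fall short of that in this replicate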
# Xi reactivation: reactivates the inactive X chromosome in mouse fibroblasts. activation, % at 7.58 µM. AID 743238. 0.055% of 360,000 active. XiGFP mouse fibroblasts, % GFP-positive cells imaging, 3 d; cells co-treated with 5-aza-dC sensitizer; scaled so ellipticine positive control = 100%;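 active = mean normalized replicate activation at least 10% and every replicate at or above 10%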;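 also: 0% = median of on-plate neutral control wells and 100% = ellipticine 6 µM median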
#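 System: XiGFP fibroblasts, SV40-immortalized. Medium: DMEM plus 5-aza-dC sensitizer. Doses: single point. Timing: 3 d treatment, 15 min room-temperature fixation. Control set: ellipticine 6 µM.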
# * hit, by the source's call; nt = no result; ! = not active in a repeat.
# Keys – A = RAD54 branch; B = RAD52 inh; C = E-sel inducer; D = UUG fidelity; E = Xi reactivation
SMILES: O=C(C1CCC1)N1C[C@@H]2N[C@H](C1)C2c1ccc(/C=C/c2ccccc2)cc1 (stereo partly specified)
  A: nt; B: 44.2; C: -0.1; D: nt; E: 0.0
SMILES: O=C(Nc1ccccc1)N1C[C@@H]2N[C@H](C1)C2c1ccc(-c2cccnc2)cc1 (stereo partly specified)
  A: nt; B: 6.4; C: -0.1; D: nt; E: 0.0
SMILES: O=C(Nc1ccc(C(F)(F)F)cc1)N1C[C@@H]2N[C@H](C1)C2c1ccc(-c2ccccc2)cc1 (stereo partly specified)
  A: nt; B: 79.0*!; C: -0.1; D: nt; E: 0.1
SMILES: CO[C@H]1CN(C)C(=O)c2cc(NS(=O)(=O)c3cn(C)cn3)ccc2OC[C@H](C)N(CCC(F)(F)F)C[C@@H]1C
  A: -7.9; B: 11.2; C: -0.3; D: nt; E: 0.1
SMILES: C[C@H]1CN([C@@H](C)CO)C(=O)c2cccc(NS(C)(=O)=O)c2O[C@H]1CN(C)C(=O)Nc1ccccc1
  A: -3.4; B: -4.1; C: -28.4; D: -10.2; E: 0.0
SMILES: COc1ccc2c3c(n(C)c2c1)[C@@H](CO)NCC31CCN(S(=O)(=O)c2ccc(C)cc2)CC1
  A: nt; B: nt; C: -0.4; D: nt; E: 0.5
SMILES: COc1ccc2c3c(n(C)c2c1)[C@H](CO)NCC31CCN(Cc2ccccc2Cl)CC1
  A: nt; B: nt; C: 0.2; D: nt; E: 0.1
SMILES: COc1ccc2c3c(n(C)c2c1)[C@@H](CO)NCC31CN(CC2CCOCC2)C1
  A: nt; B: 74.9*; C: 0.2; D: nt; E: 0.1
SMILES: COc1ccc2c3c(n(C)c2c1)[C@H](CO)N(CC1CCOCC1)CC31CN(CC2CCOCC2)C1
  A: nt; B: 0.4; C: -0.1; D: nt; E: 0.2
SMILES: COc1ccc2c3c(n(C)c2c1)[C@@H](CO)NCC31CN(Cc2ccc(Cl)cc2)C1
  A: nt; B: nt; C: -0.5; D: nt; E: 0.2
SMILES: COc1ccc2c3c(n(C)c2c1)[C@H](CO)NCC31CCN(S(=O)(=O)c2cccc(C)c2)CC1
  A: nt; B: 54.7*; C: -0.3; D: nt; E: 0.0
SMILES: COc1ccc2c3c(n(C)c2c1)[C@H](CO)NCC31CN(Cc2ccc(F)cc2)C1
  A: nt; B: 61.9*; C: -0.1; D: nt; E: 0.0
SMILES: COc1ccc2c3c(n(C)c2c1)[C@H](CO)NCC31CCN(Cc2cc(-c3ccccc3)on2)CC1
  A: nt; B: 66.9*; C: 0.8; D: nt; E: 0.0
SMILES: C[C@H]1CN([C@@H](C)CO)C(=O)Cc2cc(NC(=O)CCCCCC(=O)Nc3ccccc3N)ccc2O[C@H]1CN(C)Cc1ccc(-c2ccccc2)cc1
  A: -7.3; B: -14.5; C: 13.1; D: 4.4; E: 0.1
SMILES: COc1ccc2c3c(n(C)c2c1)[C@H](CO)NCC31CN(CC2CC2)C1
  A: nt; B: 61.7*; C: 1.3; D: nt; E: 0.4
SMILES: COc1ccc2c3c(n(C)c2c1)[C@@H](CO)NCC31CCN(CC2CCCCC2)CC1
  A: nt; B: nt; C: nt; D: nt; E: 0.0
SMILES: C=CCn1c(=N)n(CC(=O)c2ccc(Br)s2)c2ccccc21
  A: -0.2; B: -7.9; C: 69.2*; D: -5.0; E: -0.1
SMILES: CC1CCN(c2nc3c(N)ncnc3n2[C@@H]2O[C@H](CO)[C@@H](O)[C@H]2O)CC1
  A: 3.0; B: -14.3; C: 0.3; D: -4.7; E: 0.2
SMILES: CC1CCN(c2nc3c(=O)[nH]c(N)nc3n2[C@@H]2O[C@H](CO)[C@@H](O)[C@H]2O)CC1
  A: -5.2; B: -10.9; C: 69.0*; D: -12.9; E: 0.3
SMILES: Cc1ccc(Cl)c2c(N=Nc3ccccc3)c(O)[nH]c12
  A: -6.9; B: -12.7; C: nt; D: -10.3; E: 26.7*
SMILES: COc1cc(N2CCCC2)c(OC)cc1/C=C1/NC(=S)NC1=O
  A: nt; B: nt; C: nt; D: nt; E: 70.9*
SMILES: COc1ccc(CN(C)C[C@@H]2Oc3ccc(NS(=O)(=O)c4ccc(C)cc4)cc3CC(=O)N([C@H](C)CO)C[C@@H]2C)cc1
  A: -8.4; B: 9.5; C: 2.4; D: 3.2; E: 0.0
SMILES: O=C(Nc1ccc(C(=O)O)cc1)Nc1ccc([N+](=O)[O-])cc1
  A: -2.1; B: -8.9; C: 0.1; D: 4.9; E: 0.0
SMILES: O=C(Nc1cc(C(F)(F)F)cc(C(F)(F)F)c1)Nc1cnn(-c2ccc([N+](=O)[O-])cc2)c1C(F)(F)F
  A: -3.6; B: -15.8; C: 73.9*; D: -6.9; E: 0.1
SMILES: C=CCCC1CN(Cc2ccc(OC)cc2)S(=O)(=O)c2c(Oc3cc(C)c(C)c(C)c3)cccc2O1 (stereo unspecified)
  A: nt; B: 1.4; C: 1.5; D: nt; E: 0.1

# Part of the list above, tab-delimited:
canonical_smiles	RAD54 branch	RAD52 inh	E-sel inducer	UUG fidelity	Xi reactivation
COc1ccc2c3c(n(C)c2c1)[C@H](CO)NCC31CCN(Cc2cc(-c3ccccc3)on2)CC1	nt	66.9*	0.8	nt	0.0
C[C@H]1CN([C@@H](C)CO)C(=O)Cc2cc(NC(=O)CCCCCC(=O)Nc3ccccc3N)ccc2O[C@H]1CN(C)Cc1ccc(-c2ccccc2)cc1	-7.3	-14.5	13.1	4.4	0.1
COc1ccc2c3c(n(C)c2c1)[C@H](CO)NCC31CN(CC2CC2)C1	nt	61.7*	1.3	nt	0.4

# (next part)
# Keys – A = RAD54 branch; B = RAD52 inh; C = E-sel inducer; D = UUG fidelity; E = Xi reactivation
SMILES: O=C(C[C@H]1C[C@H]2c3cc(NC(=O)c4cccnc4)ccc3O[C@H]2[C@H](CO)O1)NCc1cccc(F)c1
  A: -8.7; B: 6.4; C: -0.2; D: -17.9; E: 0.0
SMILES: CCc1ccc(N2CC(C(=O)Nc3ccc(F)cc3)CC2=O)cc1 (stereo unspecified)
  A: -19.2; B: -3.7; C: 41.6*; D: -4.2; E: 0.4
SMILES: CO[C@H]1CN(C)C(=O)c2cc(NC(=O)C3CCCCC3)ccc2OC[C@H](C)NC[C@@H]1C
  A: 1.9; B: 5.3; C: -0.2; D: -7.4; E: 0.7
SMILES: CCOC(=O)C1=C(O)/C(=C/c2cc(OC)c(O)c(OC)c2)SC1=Nc1ccc(OC)cc1
  A: nt; B: nt; C: nt; D: nt; E: 14.6*
SMILES: CC(=O)c1ccc(N2CCN(c3ccnc4cc(Cl)ccc34)CC2)cc1
  A: -10.0; B: -17.8; C: 40.1*; D: -19.0; E: 0.4
SMILES: C[C@@H]1CN([C@H](C)CO)C(=O)c2cc(C3=CCCC3)cnc2O[C@H]1CN(C)Cc1ccc(C(=O)O)cc1
  A: 4.8; B: 8.3; C: 0.5; D: 36.1; E: -0.4
SMILES: Cc1noc(C)c1S(=O)(=O)Nc1ccc2c(c1)C(=O)N([C@@H](C)CO)C[C@@H](C)[C@H](CN(C)S(=O)(=O)c1ccc(F)cc1)OCCCC[C@H](C)O2
  A: -4.7; B: 94.4*; C: -0.1; D: 29.3; E: 0.1
SMILES: Cc1noc(C)c1S(=O)(=O)Nc1ccc2c(c1)C(=O)N([C@H](C)CO)C[C@H](C)[C@@H](CN(C)S(=O)(=O)c1ccc(F)cc1)OCCCC[C@@H](C)O2
  A: -2.3; B: 76.4*; C: 0.1; D: -8.9; E: 0.2
SMILES: Cc1noc(C)c1S(=O)(=O)Nc1ccc2c(c1)C(=O)N([C@H](C)CO)C[C@H](C)[C@H](CN(C)S(=O)(=O)c1ccc(F)cc1)OCCCC[C@H](C)O2
  A: -9.0; B: -72.2; C: 0.0; D: 2.4; E: 0.0
SMILES: Cc1noc(C)c1S(=O)(=O)Nc1ccc2c(c1)C(=O)N([C@H](C)CO)C[C@@H](C)[C@H](CN(C)S(=O)(=O)c1ccc(F)cc1)OCCCC[C@@H](C)O2
  A: -8.1; B: 58.6*; C: -0.1; D: -3.7; E: 0.0
SMILES: Cc1noc(C)c1S(=O)(=O)Nc1ccc2c(c1)C(=O)N([C@@H](C)CO)C[C@H](C)[C@H](CN(C)S(=O)(=O)c1ccc(F)cc1)OCCCC[C@H](C)O2
  A: -4.1; B: 80.9*; C: 0.1; D: 26.5; E: 0.0
SMILES: CO[C@H]1CN(C)C(=O)c2cc(NC(=O)C3CC3)ccc2OC[C@@H](C)N(CC2CC2)C[C@@H]1C
  A: 0.7; B: 6.0; C: -0.2; D: 2.2; E: 0.1
SMILES: N#C[C@H]1N[C@@H](CO)[C@H]1c1ccccc1
  A: -1.2; B: -13.6; C: 0.1; D: -7.7; E: 0.3
SMILES: NC(=O)c1c(NC(=O)c2ccccc2)sc2c1CCN(Cc1ccccc1)C2
  A: -84.1; B: -447.5; C: nt; D: -9.9; E: 43.8*
SMILES: CCN1CCc2c(sc(NC(=O)c3ccc(S(=O)(=O)N(CC)c4ccccc4)cc3)c2C(N)=O)C1
  A: -16.1; B: -26.8; C: 0.1; D: -6.6; E: 72.8*
SMILES: CCN1CCc2c(sc(NC(=O)c3ccc(S(=O)(=O)N4CCOCC4)cc3)c2C(N)=O)C1
  A: 42.8; B: 27.1; C: 4.7; D: -6.1; E: 0.0
SMILES: CCN1CCc2c(sc(NC(=O)Nc3ccc(Cl)c(Cl)c3)c2C(N)=O)C1
  A: -210.7; B: -97.9; C: nt; D: -12.5; E: 104.6*
